Laboratory results published in patent publication US20130046015A1, “Therapeutic Inhibition of Granulocyte Function in Demyelinating Disease” (priority 2010, published 2013).

What was measured:
[1] = tested on: TH17 EAE; test: TH17 EAE, treatment of induced disease; assay type: in vivo; settings: IFN-β treatment
Method: Statistical analysis. EAE data are presented as means±SEM and statistical significance was determined using a two tailed Mann-Whitney test with a value of P<0.05 was considered significant. STAT1 activation and ELISA data are presented as means±1 standard deviation and statistics significance was determined using a two tailed student T-test.

[2] = tested on: neuromyelitis optica (NMO); settings: in vivo; cited from earlier work
[3] = tested on: relapsing remitting multiple sclerosis; test: Clinical response of RRMS patients to IFNβ therapy; assay type: in vivo, human; settings: median
Method: MS Patients Clinical Classification and Serum Collection. Twenty-six closely monitored RRMS patients receiving IFNβ treatment for at least 12 months were identified from the outpatient clinic as responders or non-responders to IFNβ therapy at the MS Center Amsterdam, the Netherlands. The patients were classified based on EDSS (Extended Disability Status Scale) progression and the number of relapses and steroid interventions (3 days of 1000 mg/day i.v. methylprednisolone) in the two years before initiation of treatment as compared to the first two years after starting treatment (see Table 1). Two MS neurologists, blinded to the laboratory data, independently classified the selected patients as responder or non-responder. In case of disagreement there was a consensus meeting afterwards. Serum samples were obtained at a fixed time of the day just before starting IFNβ therapy. The study design received approval from the institutional Medical Ethics Board of the VU University Medical Center, Amsterdam, the Netherlands. All patients signed written informed consent.

## IFN-β: interferon β (Avonex, Betaseron, Rebif), conventional treatment for MS
[1]
  symptoms in TH17 induced EAE: worsened
[2]
  relapses in individuals with NMO: induces severe relapses
[3]; Non-responder (14 patients)
  Relapse rate in 2 yrs after start IFNβ: 2
[3]; Responder (12 patients)
  Relapse rate in 2 yrs after start IFNβ: 0
